PMC7728344, “Pharmacokinetic Characterization of (Poly)phenolic Metabolites in Human Plasma and Urine after Acute and Short-Term Daily Consumption of Mango Pulp” (Molecules, 2020)

Format: in vivo, human
Set-up: AUC0–24h: concentration or dose not given beside the values
Description: SPE procedure was conducted to extract and concentrate the (poly)phenolic compounds and their metabolites from the plasma samples. Briefly, plasma samples were thawed on ice and 500 µL plasma was diluted with 1.5 mL of 0.1% formic acid in water with addition of internal standards (2-methylhippuric acid (2 ng/mL), phloridizin (1 ng/mL)) before being loaded on preconditioned SPE cartridges. The cartridges were washed with 0.1% formic acid in water (1 mL) after loading with plasma samples. The elution of the compounds was achieved by 0.1% formic acid in methanol (1 mL) and the eluent was dried under nitrogen gas at room temperature. […] Supernatant was collected in amber HPLC vials before analysis.
The absorption and elimination of 11 major mango metabolites over 24 h was determined after MP, MP + VC, and VC intake. The plasma concentration/area at each time point was determined by the mean of 13 subjects. The time vs. concentration curves and the time vs. area curves were created using GraphPad Prism (version 8.2.1). […] Tmax is the time (h) when Cmax was achieved. Wilcoxon signed-rank test was used for Tmax analysis due to non-normal distribution. Area under the plasma concentration time curve (AUC0−24h, nmol·h/L) was calculated by the linear trapezoidal method using Microsoft Excel 2013, version 15 [63]. […]

[1] = human plasma, 0−24 h, after VC (vitamin C 100 mg) beverage, mean ± standard error, read-out: Cmax
[2] = human plasma, after VC beverage, mean ± standard error

| AUC0–24h (human, in vivo) [nmol·h/L] | Cmax (human, in vivo) [nM] | Tmax (human, in vivo) [h] | Substance | time to reach maximum concentration/area in plasma (after mango intake) [h] | time within which cleared from the bloodstream (after mango intake) [h] | Cmax [1] [nM] | AUC0–24h [2] [nmol·h/L] |
| --- | --- | --- | --- | --- | --- | --- | --- |
| 616.9 ± 83.7 | 230 ± 32.3 | 8.6 ± 0.5 | methylpyrogallol sulfate isomer 1 [Compound C6] | – | – | – | – |
| 375.4 ± 94.3 | 244 ± 71.8 | 9.8 ± 1.8 | methylpyrogallol sulfate isomer 2 [Compound C7] | – | – | – | – |
| 29.1 ± 3.0 | 6.7 ± 2.3 | 7.2 ± 2.4 | methylpyrogallol glucuronide [Compound C9] | – | – | 4.8 ± 0.3 | 26.1 ± 1.7 |

| Substance | AUC0–24h (human, in vivo) [nmol·h/L] | Cmax (human, in vivo) [nM] | Tmax (human, in vivo) [h] | time to reach maximum concentration/area in plasma (after mango intake) [h] | time within which cleared from the bloodstream (after mango intake) [h] | Cmax [1] [nM] | AUC0–24h [2] [nmol·h/L] |
| --- | --- | --- | --- | --- | --- | --- | --- |
| ferulic acid hexoside [Compound C5] | 7.7 ± 1.2 | 2.3 ± 0.4 | 1.8 ± 0.2 | 1 to 2 | 6 to 8 | 0.5 ± 0.1 | 2.5 ± 0.1 |

Read-outs that look alike come from different tables or passages of the source.
